Among the data in patent publication US7262052B1, “α-2/δ gene” (Warner Lambert Company, priority 1999, dated 2007) are Kd values, retold here.

The chains behind the UniProt entries cited, without tags or fusion partners. Where a name states a change or a piece, a line headed by the entry shows the natural chain unless it says otherwise.
UniProt A0A287BIN3, entry or part of it: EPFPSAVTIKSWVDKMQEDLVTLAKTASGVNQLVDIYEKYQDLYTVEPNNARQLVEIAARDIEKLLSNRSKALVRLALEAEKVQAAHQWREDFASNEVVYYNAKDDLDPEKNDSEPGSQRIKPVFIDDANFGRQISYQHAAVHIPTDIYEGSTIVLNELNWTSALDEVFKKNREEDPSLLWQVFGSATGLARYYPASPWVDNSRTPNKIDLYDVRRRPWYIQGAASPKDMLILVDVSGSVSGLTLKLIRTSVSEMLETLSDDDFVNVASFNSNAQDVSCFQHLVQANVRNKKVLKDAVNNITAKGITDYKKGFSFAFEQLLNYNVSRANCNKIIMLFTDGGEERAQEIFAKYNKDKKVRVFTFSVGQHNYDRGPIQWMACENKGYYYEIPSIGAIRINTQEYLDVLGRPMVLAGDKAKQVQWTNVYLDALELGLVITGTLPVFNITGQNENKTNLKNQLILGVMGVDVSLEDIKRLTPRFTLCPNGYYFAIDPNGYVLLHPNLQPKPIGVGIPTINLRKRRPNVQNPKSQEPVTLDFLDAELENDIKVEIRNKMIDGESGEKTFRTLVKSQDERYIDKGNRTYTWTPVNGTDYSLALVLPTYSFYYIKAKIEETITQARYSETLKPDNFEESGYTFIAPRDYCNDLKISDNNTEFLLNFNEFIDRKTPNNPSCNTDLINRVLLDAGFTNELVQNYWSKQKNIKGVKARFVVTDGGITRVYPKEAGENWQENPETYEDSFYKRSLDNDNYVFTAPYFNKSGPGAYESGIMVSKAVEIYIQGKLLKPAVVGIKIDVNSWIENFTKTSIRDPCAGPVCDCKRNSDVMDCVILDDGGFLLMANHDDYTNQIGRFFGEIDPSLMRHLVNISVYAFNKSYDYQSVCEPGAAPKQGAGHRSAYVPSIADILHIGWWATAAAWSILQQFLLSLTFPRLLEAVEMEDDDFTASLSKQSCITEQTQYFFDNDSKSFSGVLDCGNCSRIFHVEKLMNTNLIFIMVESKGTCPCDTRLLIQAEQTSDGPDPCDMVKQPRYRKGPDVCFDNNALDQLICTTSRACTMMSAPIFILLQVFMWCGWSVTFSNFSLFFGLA

Where “and” joins values, the source holds several entries; their conditions need not be identical. Equal entries are not always repeated.

The target in the assay is Porcine α2δ-A (Sus scrofa, UniProt A0A287BIN3). Briefly: biochemical.

What is called Kd is the concentration at which binding is half-saturated. On to `NCC1(CC(=O)O)CCCCC1` [[3H]gabapentin, gabapentin], for which the Kd by setting is: (KD, single determinations (n = 2), 21° C., COS-7 membranes) 0.0231 µM and 0.0212 µM; (Mean KD, mean of n = 2) 22.2 µM.
